Measurements: US6528675B1, “Cyanohydrin ethers and esters as high-sensitivity enzyme substrates” (The Regents of the University of California, priority 2001, dated 2003)

Experiment: Change in optical properties, UV absorption of esters and hydrolysis products
Format: physicochemical
Details: for ε (molar absorptivity): in M-1 cm-1 (unit assumed)
Text: The substrates representing the invention were (R/S)-acetic acid cyano-(6-methoxynaphthalen-2-yl)-methyl ester (the title compound of Synthesis Example 1 above) and (trans/cis)-3-(2,2-dichlorovinyl)-2,2-dimethylcyclopropanecarboxylic acid cyano-(6-methoxynaphthalen-2-yl)-methyl ester (the title compound of Synthesis Example 2 above).

With naphthol the “OD (optical density)” value (tris-maleate pH 6.5, 10 μM) was 0.105, the “ε (molar absorptivity)” value (tris-maleate pH 6.5, 10 μM) was 2,600 and the “OD (optical density)” value (tris-maleate pH 7.5, 10 μM) was 0.155. The λmax (tris-maleate pH 7.5, 10 μM) was 284 nm, the “ε (molar absorptivity)” value (tris-maleate pH 7.5, 10 μM) was 3,870 and the “OD (optical density)” value (tris-maleate pH 8.5, 10 μM) was 0.170. The λmax (tris-maleate pH 8.5, 10 μM) was 283 nm and the “ε (molar absorptivity)” value (tris-maleate pH 8.5, 10 μM) was 4,250.
